The source of these data is ChEMBL document CHEMBL3217531, “Potential Drug Abuse Therapeutics Derived from the Hallucinogenic Natural Product Salvinorin A” (Medchemcomm, 2011).

Sequences of proteins named here, by UniProt entry; tags and fusion partners are left off. A change or cut given only in a name is not applied to a line headed by its entry.
UniProt P41145: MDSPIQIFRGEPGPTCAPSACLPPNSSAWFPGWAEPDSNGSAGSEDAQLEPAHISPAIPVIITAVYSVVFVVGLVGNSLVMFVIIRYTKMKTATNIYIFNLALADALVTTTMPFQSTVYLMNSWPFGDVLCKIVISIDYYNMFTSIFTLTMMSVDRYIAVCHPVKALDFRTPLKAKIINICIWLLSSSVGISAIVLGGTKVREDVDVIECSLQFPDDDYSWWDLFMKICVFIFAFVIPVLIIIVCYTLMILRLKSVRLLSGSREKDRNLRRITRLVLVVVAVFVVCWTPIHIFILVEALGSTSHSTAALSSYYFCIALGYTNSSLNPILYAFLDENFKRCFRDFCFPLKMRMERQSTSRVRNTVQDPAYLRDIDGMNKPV

The target of test [1] is T1, Kappa-type opioid receptor (Homo sapiens, UniProt P41145). Kind of test: Displacement of [3H]U69593 from human kappa opioid receptor expressed in CHO cell membrane after 2 hrs by scintillation counting analysis. The class given is cell membranes.
Test [2] addresses T1, Kappa-type opioid receptor. The test is described as follows: Agonist activity at human kappa opioid receptor expressed in CHO cell membrane assessed as [35S]GTPgammaS binding after 3 hrs by liquid scintillation counting analysis relative to (-)-U50488H. The format is functional, cell membranes. (Binding of GTPγS marks nucleotide exchange on a G protein.)

A word on the Ki: it is a dissociation constant, usually derived from enzyme kinetics or from competition with a known ligand. A higher Ki goes with a looser hold on the target. Regarding `CCO[C@H](C)O[C@H]1C[C@@H](C(=O)OC)[C@]2(C)CC[C@H]3C(=O)O[C@H](c4ccoc4)C[C@]3(C)[C@H]2C1=O`, the affinity in test [1], expressed as Ki, was 1230 nM. That is a single-digit micromolar value.
The term Emax denotes the greatest response seen or fitted, relative to the assay's reference. As to `CCO[C@@H](C)O[C@H]1C[C@@H](C(=O)OC)[C@]2(C)CC[C@H]3C(=O)O[C@H](c4ccoc4)C[C@]3(C)[C@H]2C1=O`, in test [1], the Ki came out at 6.7 nM. In addition, in test [2], the Emax was found to be 101%.
